{
  "sequences": {"note": "Amino acid sequences for entries named in this document (tags omitted).", "UniProt P35372, whole entry, looked up": "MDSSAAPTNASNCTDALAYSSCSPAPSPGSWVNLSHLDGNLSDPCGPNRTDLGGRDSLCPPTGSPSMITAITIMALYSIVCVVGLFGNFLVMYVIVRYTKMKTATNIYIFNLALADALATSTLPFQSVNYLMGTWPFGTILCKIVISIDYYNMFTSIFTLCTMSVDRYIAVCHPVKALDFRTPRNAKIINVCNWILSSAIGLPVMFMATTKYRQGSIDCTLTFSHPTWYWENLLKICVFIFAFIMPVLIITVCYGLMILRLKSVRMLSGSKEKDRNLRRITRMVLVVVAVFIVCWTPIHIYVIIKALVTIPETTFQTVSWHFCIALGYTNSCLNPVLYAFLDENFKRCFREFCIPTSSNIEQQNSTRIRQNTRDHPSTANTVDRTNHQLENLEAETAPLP", "UniProt P41143, whole entry, looked up": "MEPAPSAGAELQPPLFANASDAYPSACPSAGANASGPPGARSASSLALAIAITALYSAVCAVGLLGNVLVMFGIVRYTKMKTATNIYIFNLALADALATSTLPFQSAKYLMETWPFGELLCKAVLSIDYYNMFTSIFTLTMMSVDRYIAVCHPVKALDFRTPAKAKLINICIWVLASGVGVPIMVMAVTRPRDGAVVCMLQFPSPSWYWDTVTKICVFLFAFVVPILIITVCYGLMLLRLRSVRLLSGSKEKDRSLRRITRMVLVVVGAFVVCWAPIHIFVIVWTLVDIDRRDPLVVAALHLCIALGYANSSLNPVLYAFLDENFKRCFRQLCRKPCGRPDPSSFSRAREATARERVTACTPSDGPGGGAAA"},
  "source": "ChEMBL document CHEMBL1135372",
  "about": "“3-Aryl pyridone derivatives. Potent and selective kappa opioid receptor agonists” (Bioorg Med Chem Lett, 2002)",
  "key": {"[1]": {"target": "Mu-type opioid receptor (Homo sapiens, UniProt P35372)"}, "[2]": {"target": "Delta-type opioid receptor (Homo sapiens, UniProt P41143)", "assay": "Binding affinity towards Opioid receptor delta 1 by the displacement of [125I]-Deltorphin"}},
  "data": [
    {"smiles": "CN(C(=O)Cc1ccccc1)[C@H]1CC[C@@]2(CCCO2)C[C@@H]1N1CCCC1", "values": [
      {"measurement": "IC50", "setting": "[1]", "result": 0.248, "unit": "µM"},
      {"measurement": "IC50", "setting": "[2]", "result": 5.84, "unit": "µM"}
    ]}
  ]
}
